Measurements reported in US6153592A, “Enhancing the bioavailability of proteolytically labile therapeutic agents” (Port Systems, LLC, priority 1994, dated 2000).

Legend:
[1] = test system: intestinal aminopeptidases; experiment: Protection against degradation by aminopeptidase in vivo: YdAGFdL bioavailability after ileal dosing; details: YdAGFdL alone, no protecting agent, ileally fistulated rats
Method: The pentapeptide enkephalin analogue D-AJa-D-Leu-enkephalin (YdAGFdL) (1.0 mg) was directly ileally dosed to chronically ileally fistulated rats. Radiolabeled YdAGFdL (1.12 microgram) was dosed with each of four protecting agents: (1) decanted soy flour, <1K MW; (2) decanted and ultrafitered soy flour, 1K-30K MW; (3) pepsin-treated (FMC ACTI-MOD) soy flour, <30K MW; (4) the potent aminopeptidase inhibitor amastatin (positive control). Blood was collected from a jugular vein cannula at various times post-dosing, and intact YdAGFdL was quantified by a radiometric thin layer chromatography (TLC) method utilizing reverse phase KC-18 TLC plates (Whatman Co.). The TLC plates were developed with 30:701 -propanol/0.1 M phosphate buffer (pH 4.1).

[2] = Lee, Journal of Controlled Release, 13, 213 (1990), cited from earlier work

Row | Substance | % YdAGFdL Bioavailability [1] | bioavailability following oral administration ([2]; oral) | bioavailability following vaginal administration ([2]; vaginal)
1 | D-Ala-D-Leu-enkephalin [None (control)] | 1.78 ± 0.46% |  | 
2 | insulin |  | 0.05% | 18%
